{
  "source": "patent US9023623B2",
  "about": "“Method for preparing of allicin injection and low-temperature continuous stirring ultrafiltration device thereof” (Xinjiang Ailexin Pharmaceutical Co., Ltd., priority 2010, dated 2015)",
  "key": {"[1]": {"test_system": "BGC823, gastric carcinoma cell line", "test": "Anti-tumor test, IC50 on cell line"}, "Hep3B, SMMC-7721": {"test_system": "Hep3B, SMMC-7721", "test": "Anti-tumor test, IC50 on cell line"}, "[2]": {"test_system": "MDA-MB-435S, breast carcinoma high transitional cell", "test": "Anti-tumor test, IC50 on cell line"}, "thirteen cell strains": {"test_system": "thirteen cell strains", "test": "Anti-tumor test, summary over the cell strains of table 1", "settings": "summary of table 1"}, "[3]": {"test_system": "A549, lung cancer cell line", "test": "Anti-tumor test, IC50 on cell line", "settings": "5000 cells/well"}, "[4]": {"test_system": "HCT116, human large intestine cancer cell line", "test": "Anti-tumor test, IC50 on cell line", "settings": "3000 cells/well"}, "[5]": {"test_system": "HT-29, moderately differentiated colon carcinoma cell of human", "test": "Anti-tumor test, IC50 on cell line", "settings": "5000 cells/well"}, "[6]": {"test_system": "Jurkat E6-1, acute T cell leukemia", "test": "Anti-tumor test, IC50 on cell line", "settings": "5000 cells/well"}, "[7]": {"test_system": "K562, chronic myelogenous leukemia", "test": "Anti-tumor test, IC50 on cell line", "settings": "5000 cells/well"}, "[8]": {"test_system": "L1210, mice leukemic cell", "test": "Anti-tumor test, IC50 on cell line", "settings": "2000 cells/well"}, "[9]": {"test_system": "MCF-7, breast carcinoma cell line", "test": "Anti-tumor test, IC50 on cell line", "settings": "5000 cells/well"}, "[10]": {"test_system": "PANC-1, pancreatic cancer cell line", "test": "Anti-tumor test, IC50 on cell line", "settings": "5000 cells/well"}, "[11]": {"test_system": "PC-3, prostate cancer cell line", "test": "Anti-tumor test, IC50 on cell line", "settings": "5000 cells/well"}, "[12]": {"test_system": "ZR-75-1, breast carcinoma cell line", "test": "Anti-tumor test, IC50 on cell line", "settings": "4000 cells/well"}, "[13]": {"settings": "read-out: IC50 of Taxol (nM) 1, 5000 cells/well, run 1"}, "[14]": {"settings": "read-out: IC50 of Taxol (nM) 2, 5000 cells/well, run 2"}, "[15]": {"settings": "read-out: IC50 of Taxol (nM) 3, 5000 cells/well, run 3"}},
  "note": "Like-named read-outs stand apart in the source and are kept apart here.",
  "data": [
    {"smiles": "CC(=O)O[C@H]1C(=O)[C@@]2(C)[C@H]([C@H](OC(=O)c3ccccc3)[C@]3(O)C[C@H](OC(=O)[C@H](O)[C@@H](NC(=O)c4ccccc4)c4ccccc4)C(C)=C1C3(C)C)[C@]1(OC(C)=O)CO[C@@H]1C[C@@H]2O", "values": [
      {"measurement": "IC50", "setting": "[1]; [13]", "value": 9.18, "unit": "nM"},
      {"measurement": "IC50", "setting": "[1]; [14]", "value": 9.07, "unit": "nM"},
      {"measurement": "IC50", "setting": "[1]; [15]", "value": 9.3, "unit": "nM"},
      {"measurement": "IC50", "setting": "Hep3B, SMMC-7721; [13]", "value": 6.79, "unit": "nM"},
      {"measurement": "IC50", "setting": "Hep3B, SMMC-7721; [14]", "value": 6.21, "unit": "nM"},
      {"measurement": "IC50", "setting": "Hep3B, SMMC-7721; [15]", "value": 6.9, "unit": "nM"},
      {"measurement": "IC50", "setting": "[2]; [13]", "value": 0.226, "unit": "nM"},
      {"measurement": "IC50", "setting": "[2]; [14]", "value": 0.215, "unit": "nM"},
      {"measurement": "IC50", "setting": "[2]; [15]", "value": 0.212, "unit": "nM"},
      {"measurement": "IC50", "setting": "thirteen cell strains; read-out: Inhibitory Concentration 50 (IC50) of Taxol on various kinds of cells", "value": "≤ 10", "unit": "nM"}
    ]},
    {"smiles": "C=CCS[S+]([O-])CC=C", "note": "(centres unmarked) [Allicin, thio-2-propene-1-sulfinic acid S-allyl ester]", "values": [
      {"measurement": "IC50 of Allicin (μg/ml) 1", "setting": "[3]; run 1", "value": "6.321 ± 1.10", "unit": "µg/mL"},
      {"measurement": "IC50 of Allicin (μg/ml) 2", "setting": "[3]; run 2", "value": "6.327 ± 1.08", "unit": "µg/mL"},
      {"measurement": "IC50 of Allicin (μg/ml) 3", "setting": "[3]; run 3", "value": "8.032 ± 1.04", "unit": "µg/mL"},
      {"measurement": "IC50 of Allicin (μg/ml) 1", "setting": "[1]; 5000 cells/well, run 1", "value": "6.318 ± 1.09", "unit": "µg/mL"},
      {"measurement": "IC50 of Allicin (μg/ml) 2", "setting": "[1]; 5000 cells/well, run 2", "value": "5.679 ± 1.07", "unit": "µg/mL"},
      {"measurement": "IC50 of Allicin (μg/ml) 3", "setting": "[1]; 5000 cells/well, run 3", "value": "6.192 ± 1.07", "unit": "µg/mL"},
      {"measurement": "IC50 of Allicin (μg/ml) 1", "setting": "[4]; run 1", "value": "3.721 ± 1.10", "unit": "µg/mL"},
      {"measurement": "IC50 of Allicin (μg/ml) 2", "setting": "[4]; run 2", "value": "4.258 ± 1.15", "unit": "µg/mL"},
      {"measurement": "IC50 of Allicin (μg/ml) 3", "setting": "[4]; run 3", "value": "3.542 ± 1.09", "unit": "µg/mL"},
      {"measurement": "IC50 of Allicin (μg/ml) 1", "setting": "[5]; run 1", "value": "6.282 ± 1.07", "unit": "µg/mL"},
      {"measurement": "IC50 of Allicin (μg/ml) 2", "setting": "[5]; run 2", "value": "7.733 ± 1.07", "unit": "µg/mL"},
      {"measurement": "IC50 of Allicin (μg/ml) 3", "setting": "[5]; run 3", "value": "6.980 ± 1.08", "unit": "µg/mL"},
      {"measurement": "IC50 of Allicin (μg/ml) 1", "setting": "Hep3B, SMMC-7721; 5000 cells/well, run 1", "value": "4.917 ± 1.05", "unit": "µg/mL"},
      {"measurement": "IC50 of Allicin (μg/ml) 2", "setting": "Hep3B, SMMC-7721; 5000 cells/well, run 2", "value": "4.980 ± 1.04", "unit": "µg/mL"},
      {"measurement": "IC50 of Allicin (μg/ml) 3", "setting": "Hep3B, SMMC-7721; 5000 cells/well, run 3", "value": "4.564 ± 1.03", "unit": "µg/mL"},
      {"measurement": "IC50 of Allicin (μg/ml) 1", "setting": "[6]; run 1", "value": "1.132 ± 1.28", "unit": "µg/mL"},
      {"measurement": "IC50 of Allicin (μg/ml) 2", "setting": "[6]; run 2", "value": "1.401 ± 1.27", "unit": "µg/mL"},
      {"measurement": "IC50 of Allicin (μg/ml) 3", "setting": "[6]; run 3", "value": "1.231 ± 1.14", "unit": "µg/mL"},
      {"measurement": "IC50 of Allicin (μg/ml) 1", "setting": "[7]; run 1", "value": "6.302 ± 1.06", "unit": "µg/mL"},
      {"measurement": "IC50 of Allicin (μg/ml) 2", "setting": "[7]; run 2", "value": "~5.884", "unit": "µg/mL"},
      {"measurement": "IC50 of Allicin (μg/ml) 3", "setting": "[7]; run 3", "value": "5.817 ± 1.05", "unit": "µg/mL"},
      {"measurement": "IC50 of Allicin (μg/ml) 1", "setting": "[8]; run 1", "value": "2.266 ± 1.20", "unit": "µg/mL"},
      {"measurement": "IC50 of Allicin (μg/ml) 2", "setting": "[8]; run 2", "value": "2.090 ± 1.36", "unit": "µg/mL"},
      {"measurement": "IC50 of Allicin (μg/ml) 3", "setting": "[8]; run 3", "value": "1.542 ± 1.19", "unit": "µg/mL"},
      {"measurement": "IC50 of Allicin (μg/ml) 1", "setting": "[9]; run 1", "value": "5.853 ± 1.11", "unit": "µg/mL"},
      {"measurement": "IC50 of Allicin (μg/ml) 2", "setting": "[9]; run 2", "value": "8.075 ± 1.10", "unit": "µg/mL"},
      {"measurement": "IC50 of Allicin (μg/ml) 3", "setting": "[9]; run 3", "value": "10.9 ± 1.117", "unit": "µg/mL"},
      {"measurement": "IC50 of Allicin (μg/ml) 1", "setting": "[2]; 5000 cells/well, run 1", "value": "10.98 ± 1.04", "unit": "µg/mL"},
      {"measurement": "IC50 of Allicin (μg/ml) 2", "setting": "[2]; 5000 cells/well, run 2", "value": "11.34 ± 1.03", "unit": "µg/mL"},
      {"measurement": "IC50 of Allicin (μg/ml) 3", "setting": "[2]; 5000 cells/well, run 3", "value": "10.90 ± 1.05", "unit": "µg/mL"},
      {"measurement": "IC50 of Allicin (μg/ml) 1", "setting": "[10]; run 1", "value": "5.972 ± 1.02", "unit": "µg/mL"},
      {"measurement": "IC50 of Allicin (μg/ml) 2", "setting": "[10]; run 2", "value": "5.941 ± 1.05", "unit": "µg/mL"},
      {"measurement": "IC50 of Allicin (μg/ml) 3", "setting": "[10]; run 3", "value": "~6.204", "unit": "µg/mL"},
      {"measurement": "IC50 of Allicin (μg/ml) 1", "setting": "[11]; run 1", "value": "6.583 ± 1.07", "unit": "µg/mL"},
      {"measurement": "IC50 of Allicin (μg/ml) 2", "setting": "[11]; run 2", "value": "6.908 ± 1.06", "unit": "µg/mL"},
      {"measurement": "IC50 of Allicin (μg/ml) 3", "setting": "[11]; run 3", "value": "7.868 ± 1.08", "unit": "µg/mL"},
      {"measurement": "IC50 of Allicin (μg/ml) 1", "setting": "[12]; run 1", "value": "5.466 ± 1.12", "unit": "µg/mL"},
      {"measurement": "IC50 of Allicin (μg/ml) 2", "setting": "[12]; run 2", "value": "3.019 ± 1.30", "unit": "µg/mL"},
      {"measurement": "IC50 of Allicin (μg/ml) 3", "setting": "[12]; run 3", "value": "4.759 ± 1.13", "unit": "µg/mL"},
      {"measurement": "IC50 of allicin to 13 of the cell strains", "setting": "thirteen cell strains", "value": "below 10 μg/ml"}
    ]}
  ]
}
